Results on three compounds are retold here after ChEMBL document CHEMBL1128202, “Identification of a series of 3-(benzyloxy)-1-azabicyclo[2.2.2]octane human NK1 antagonists” (J Med Chem, 1995).

Sequences of proteins named here, by UniProt entry; tags and fusion partners are left off.
UniProt P25103, whole entry: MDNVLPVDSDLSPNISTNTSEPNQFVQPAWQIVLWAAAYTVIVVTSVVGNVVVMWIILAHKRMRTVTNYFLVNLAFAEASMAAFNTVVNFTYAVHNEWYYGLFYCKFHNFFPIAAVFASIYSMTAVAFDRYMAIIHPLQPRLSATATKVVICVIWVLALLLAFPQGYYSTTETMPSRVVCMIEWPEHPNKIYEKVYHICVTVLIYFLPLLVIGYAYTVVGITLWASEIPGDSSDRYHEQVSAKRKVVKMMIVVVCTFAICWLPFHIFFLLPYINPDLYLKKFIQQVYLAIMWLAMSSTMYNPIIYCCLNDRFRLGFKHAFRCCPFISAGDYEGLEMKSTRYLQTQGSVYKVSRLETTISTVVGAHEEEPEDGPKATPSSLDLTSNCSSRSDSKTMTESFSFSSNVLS

SMILES strings stand for the structures.

In the assay the target is Substance-P receptor (Homo sapiens, UniProt P25103). Kind of assay: Inhibition of binding of [125I]SP to the CHO cell line expressing human Tachykinin receptor 1. Format: cell-based.
In general, IC50 refers to the concentration that gives 50% inhibition. Low readings indicate higher potency, high ones lower potency. For `Cc1cc(C)cc(COC2/C(=C/c3ccccc3)N3CCC2CC3)c1` (stereo not drawn), the IC50 is 2.93 µM.

In turn, `COc1ccc(COC2C3CCN(CC3)C2C(c2ccccc2)c2ccccc2)cc1` (stereo not drawn) returned an IC50 of 1.11 µM.

`Cc1cc(C)cc(COC2C(=Cc3ccccc3)N3CCC2CC3)c1` (stereo not drawn) showed an IC50 of 0.12 µM.
